Reference: patent US6511827B1 (Merck & Co., Inc., priority 1997, dated 2003)

Protein sequences, listed by entry. Tags and fused reporters are not part of them. Lines headed by an entry give the natural chain unless they say otherwise; changes in a name come on top.
UniProt P47211: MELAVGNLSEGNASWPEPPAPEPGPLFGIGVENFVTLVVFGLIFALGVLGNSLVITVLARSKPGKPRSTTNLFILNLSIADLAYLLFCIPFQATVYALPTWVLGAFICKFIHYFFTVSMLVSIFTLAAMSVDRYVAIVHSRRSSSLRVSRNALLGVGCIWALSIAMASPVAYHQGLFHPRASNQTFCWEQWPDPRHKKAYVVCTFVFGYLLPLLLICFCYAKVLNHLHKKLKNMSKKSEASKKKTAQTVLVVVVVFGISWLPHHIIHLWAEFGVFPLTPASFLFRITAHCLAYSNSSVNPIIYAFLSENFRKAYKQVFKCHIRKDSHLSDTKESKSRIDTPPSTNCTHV

Assays:
human GALR3 [1] = test: Specific binding of ^125I-galanin radioligands to membranes of COS-7 cells transfected with GALR3 clones, as a function of membrane protein
Method: (§1) Mammalian COS-7 cells were transfected by electroporation. COS-7 cells (1×10^7) were suspended in 0.85 ml of Ringers' buffer and […] of the GALR3-2 or GALR3—3 expression plasmid was added to a 0.4 mm electroporation cuvette (Bio-Rad, Hercules, Calif.). Current was applied ([…], 260 V) using a Bio-Rad Electroporator device and the cells were transferred to a T-180 flask (Corning). Expression was allowed to proceed for 72 hrs.
Membranes were prepared from transfected cells following dissociation in enzyme-free dissociation solution (Specialty Media, Lavallette, N.J.) by disruption in a Dounce homogenizer in ice-cold membrane buffer (10 mM Tris, pH 7.4, 10 mM PMSF, […], and […]). After a low speed (1100×g for 10 min. at 4° C.) and a high speed centrifugation (38,700×g for 15 min. at 4° C.), membranes were resuspended in buffer and protein concentration determined (Bio-Rad assay kit). Binding of ^125I-human or porcine galanin (specific activity of 2200 Ci/mmol, DuPont NEN) was measured in membranes using a buffer of 25 mM Tris pH 7.4, 0.5% BSA, 2 mM MgCl2, 40 μg/ml bacitracin, 4 mg/ml phosphoramidon, and 10 μM leupeptin in a total volume of 250 ml. 70 μM ^125I-human or porcine galanin was used. Transfected cells expressing plasmid GALR3—3 were bound with ^125I-human galanin whereas cells expressing plasmid GALR3-2 were bound with ^125I-porcine galanin. Reactions were initiated by the addition of membranes and the incubation was allowed to proceed at room temperature for 1 hour. Non-specific binding was defined as the amount of radioactivity remaining bound in the presence of 1 mM respectively unlabeled galanin and was generally not above 200 cpm (<10% of total radioactivity bound). Titration of membrane protein from 1 to 50 μg was conducted. In competition studies various concentrations of unlabeled human or porcine galanin were included along with ^125I-porcine galanin (70 pM) in cells expressing the GALR3-2 plasmid. Incubations were terminated by rapid filtration through GF/C filters which had been presoaked with 0.1% polyethylamine using a TOMTEC (Orange, Conn.) cell harvester. The results were analyzed using the Prism software package (GraphPad, San Diego, Calif.). The table below illustrates that both clones confer specific binding to COS-7 cells for both human and porcine galanin radioligands as a function of protein concentration. In COS-7 cells mock transfected with expression vector only (no GALR3 gene), no specific binding of either radioligand was observed.

GALR1 = biological target: T1, GALR1 (Homo sapiens, UniProt P47211); details: GALR1 transiently expressed in COS cells; cited from earlier work
T1 construct: host or cells: COS cells, transient expression (cited work)

human GALR3 [2] = test: Competition for ^125I-porcine galanin binding to membranes of COS-7 cells expressing clone GALR3-2; details: clone GALR3-2, COS-7 membranes, ^125I-porcine galanin (70 pM), FIG. 7
Method: as §1
Membranes were prepared from transfected cells following dissociation in enzyme-free dissociation solution (Specialty Media, Lavallette, N.J.) by disruption in a Dounce homogenizer in ice-cold membrane buffer (10 mM Tris, pH 7.4, 10 mM PMSF, […], and […]). After a low speed (1100×g for 10 min. at 4° C.) and a high speed centrifugation (38,700×g for 15 min. at 4° C.), membranes were resuspended in buffer and protein concentration determined (Bio-Rad assay kit). […] Reactions were initiated by the addition of membranes and the incubation was allowed to proceed at room temperature for 1 hour. […] Titration of membrane protein from 1 to 50 μg was conducted. […] Incubations were terminated by rapid filtration through GF/C filters which had been presoaked with 0.1% polyethylamine using a TOMTEC (Orange, Conn.) cell harvester. The results were analyzed using the Prism software package (GraphPad, San Diego, Calif.).

In the case of ^125I-porcine galanin, the “Specific binding of radioligand” value (human GALR3 [1]; Clone GALR3-2, membrane protein 5 μg) is reported as 695 cpm, the “Specific binding of radioligand” value (human GALR3 [1]; Clone GALR3-2, membrane protein 10 μg) is reported as 1134 cpm and the “Specific binding of radioligand” value (human GALR3 [1]; Clone GALR3-2, membrane protein 20 μg) is reported as 1763 cpm. For the same substance, the “Specific binding of radioligand” value (human GALR3 [1]; Clone GALR3-2, membrane protein 50 μg) was 3728 cpm.

In the case of Gal(1-16), the “times more active than pGAL(3-29) as an inhibitor of ^125I-porcine galanin binding” value (GALR1) is listed as “at least 1000 times”.

With porcine galanin the IC50 (human GALR3 [2]) was 16 nM.
